What was measured:
[1] = in vivo
[2] = mouse, in vivo

Substance: Tc-99m [LL]-N,N'-bis(1-carboxy-2-mercaptoethyl)ethylenediamine [LL-isomer]
- renogram compared with Tc99m-MAG3 (in words) [1]: approximately identical to the renogram obtained with Tc99m-MAG3
- liver activity (in words) [2]: very favorable characteristics

— patent publication US4925650A, “Technetium -99m complex for examining the renal function” (Mallinckrodt, Inc., priority 1988, dated 1990)
